In this assay the target is Histamine H3 receptor (Rattus norvegicus, UniProt Q9QYN8).

Amino acid sequences for entries named in this document (tags omitted). A change or cut given only in a name is not applied to a line headed by its entry.
UniProt Q9QYN8: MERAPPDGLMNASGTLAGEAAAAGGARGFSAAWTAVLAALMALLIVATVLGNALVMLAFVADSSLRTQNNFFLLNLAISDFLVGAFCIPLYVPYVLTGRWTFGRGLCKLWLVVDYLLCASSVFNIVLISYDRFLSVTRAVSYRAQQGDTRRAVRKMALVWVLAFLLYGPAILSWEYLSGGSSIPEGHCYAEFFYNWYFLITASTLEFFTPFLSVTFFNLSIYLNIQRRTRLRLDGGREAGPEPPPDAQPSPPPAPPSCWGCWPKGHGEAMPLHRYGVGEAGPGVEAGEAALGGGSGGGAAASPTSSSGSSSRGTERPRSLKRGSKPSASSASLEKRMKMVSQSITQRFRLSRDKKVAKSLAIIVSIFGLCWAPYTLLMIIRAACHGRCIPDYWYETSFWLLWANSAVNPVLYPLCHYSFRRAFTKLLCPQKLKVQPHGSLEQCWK

Structures are written as SMILES.

For orientation: Ki means a dissociation constant, usually derived from enzyme kinetics or from competition with a known ligand. Low readings indicate tighter binding, high ones weaker binding. In turn, `CN1CCN(C(=O)c2cc3cc(Cl)ccc3[nH]2)CC1` gave a Ki of 4.7 µM.

The values above are taken from BindingDB's records for doi:10.1124/jpet.103.061754 (Johnson & Johnson Pharmaceutical, 2004).
